# Reference: patent publication US11312773B2, “Anti-PD-L1 antibody” (Fuso Pharmaceutical Industries, Ltd., priority 2016, dated 2022)
# Key:
# [1] = target: T1, bovine PD-L1 expressing cells (Bos taurus, UniProt C5NU11); experiment: Binding specificity to bovine PD-L1 expressing cells by flow cytometry
# T1 construct: expressed in transfected cells; host or cells: CHO-DG44
# T1 sequence (C5NU11 19-289): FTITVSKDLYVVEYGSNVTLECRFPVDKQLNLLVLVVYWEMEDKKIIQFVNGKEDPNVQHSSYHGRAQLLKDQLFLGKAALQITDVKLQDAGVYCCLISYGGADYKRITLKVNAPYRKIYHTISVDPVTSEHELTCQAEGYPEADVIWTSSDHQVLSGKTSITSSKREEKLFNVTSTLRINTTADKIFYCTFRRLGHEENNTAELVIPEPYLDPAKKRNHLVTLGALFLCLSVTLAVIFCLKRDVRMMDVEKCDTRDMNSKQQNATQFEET
# Protocol: Bovine PD-L1 membrane expressing cells were prepared by the procedures described below. First, 2.5 μg of pEGFP-N2-boPD-L1 or pEGFP-N2 (negative control) was introduced into 4×10^6 CHO-DG44 cells using Lipofectamine LTX (Invitrogen). Forty-eight hours later, the medium was exchanged with CD DG44 medium (Life Technologies) containing G418 (Enzo Life Science) 800 μg/ml, GlutaMAX supplement (Life Technologies) 20 ml/L, and 10% Pluronic F-68 (Life Technologies) 18 ml/L, followed by selection and cloning by limiting dilution (bovine PD-L1 expressing cell clone). In order to confirm the expression of bovine PD-L1 in the thus prepared expressing cell clone, intracellular localization of EGFP was visualized with an inverted confocal laser microscope LSM700 (ZEISS).
# After washing, APC-labeled anti-rat Ig goat antibody (Southern Biotech) or Alexa Fluor 647-labeled anti-bovine IgG (H+L) goat F(ab′)2 (Jackson ImmunoResearch) was reacted at room temperature for 30 min. As negative control antibody, rat IgG2a (k) isotype control (BD Biosciences) or bovine IgG1 antibody (Bethyl) was used. After washing, each rat antibody or rat-bovine chimeric antibody bound to cell surfaces was detected by FACS Verse (BD Biosciences). For every washing operation and dilution of antibody, PBS supplemented with 1% bovine serum albumin (Sigma-Aldrich) was used.
# [2] = system: bovine CD3-positive T cells; experiment: Biological activity test: proliferation of bovine T cells co-cultured with bovine PD-L1 expressing cells (CFSE); assay type: cell-based; conditions: 6-day co-culture, anti-CD3/anti-CD28 stimulation
# Protocol: Briefly, bovine PBMCs isolated from peripheral blood of healthy cattle were suspended in PBS to give a concentration of 10×10^6 cells/ml, and reacted with carboxyfluorescein succinimidyl ester (CFSE) at room temperature for 20 min. […] After washing, the PBMCs were reacted with anti-mouse IgG1 microbeads (Miltenyi Biotec) at 4° C. for 15 min, followed by isolation of CD3-positive T cells using autoMACS™ Pro(Miltenyi Biotec). To the isolated CD3-positive T cells, anti-bovine CD3 mouse antibody (WSU Monoclonal Antibody Center) and anti-bovine CD28 mouse antibody (Bio-Rad) were added. […] As a control for antibodies, serum-derived bovine IgG (Sigma-Aldrich) was used; as a control for PD-L1 expressing cells. EGFP expressing cells transfected with pEGFP-N2 were used. After a 6-day coculture, cells were harvested and reacted with anti-bovine CD4 mouse antibody and anti-bovine CD8 mouse antibody (Bio-Rad) at room temperature for 30 min. For the labeling of antibodies, Zenon Mouse IgG1 Labeling Kits (Life Technologies) or Lightning-Link Kit (Innova Biosciences) was used. For analysis, FACS Verse (BD Biosciences) was used. For washing operation after culturing and dilution of antibody, PBS supplemented with 1% bovine serum albumin (Sigma-Aldrich) was used.
molecule,measurement,setting,value
"ch4G12: rat-bovine chimeric anti-bovine PD-L1 antibody, 4G12 variable regions, mutated bovine IgG1 and Igλ constant regions; SEQ ID NOS: 105 and 106 (protein, chimeric L chain; chimeric H chain) light: MESQTHVLISLLLSVSGTYGDIAITQSPSSVAVSVGETVTLSCKSSQSLLYSENQKDYLGWYQQKPGQTPKPLIYWATNRHTGVPDRFTGSGSGTDFTLIISSVQAEDLADYYCGQYLVYPFTFGPGTKLELKQPKSPPSVTLFPPSTEELNGNKATLVCLISDFYPGSVTVVWKADGSTITRNVETTRASKQSNSKYAASSYLSLTSSDWKSKGSYSCEVTHEGSTVTKTVKPSECS heavy: MGWSQIILFLVAAATCVHSQVQLQQSGAELVKPGSSVKISCKASGYTFTSNFMHWVKQQPGNGLEWIGWIYPEYGNTKYNQKFDGKATLTADKSSSTAYMQLSSLTSEDSAVYFCASEEAVISLVYWGQGTLVTVSSASTTAPKVYPLSSCCGDKSSSTVTLGCLVSSYMPEPVTVTWNSGALKSGVHTFPAVLQSSGLYSLSSMVTVPGSTSGQTFTCNVAHPASSTKVDKAVDPTCKPSPCDCCPPPPVAGPSVFIFPPKPKDTLTISGTPEVTCVVVDVGHDDPEVKFSWFVDDVEVNTATTKPREEQFNSTYRVVSALRIQHQDWTGGKEFKCKVHNEGLPSSIVRTISRTKGPAREPQVYVLAPPQEELSKSTVSLTCMVTSFYPDYIAVEWQRNGQPESEDKYGTTPPQLDADSSYFLYSKLRVDRNSWQEGDTYTCVVMHEALHNHYTQKSTSKSAGK",Binding to bovine PD-L1 expressing cells,[1],binds to bovine PD-L1 expressing cells in the same manner as rat anti-bovine PD-L1 antibody 4G12
same,Effect on suppression of T cell proliferation by bovine PD-L1 expressing cells,[2],inhibits this suppression in CD4-positive T cells
